Consider one molecule from patent publication EP4737453A1, “NOVEL SELENOPHENE DERIVATIVES” (Aigen Sciences Inc., priority 2023, dated 2025).

Test in all cases: biochemical
Assay [1] deals with T1, SOS1 and KRAS G13D interaction (Homo sapiens, UniProt Q07889).
T1 sequence (Q07889 564-1049 limits assumed): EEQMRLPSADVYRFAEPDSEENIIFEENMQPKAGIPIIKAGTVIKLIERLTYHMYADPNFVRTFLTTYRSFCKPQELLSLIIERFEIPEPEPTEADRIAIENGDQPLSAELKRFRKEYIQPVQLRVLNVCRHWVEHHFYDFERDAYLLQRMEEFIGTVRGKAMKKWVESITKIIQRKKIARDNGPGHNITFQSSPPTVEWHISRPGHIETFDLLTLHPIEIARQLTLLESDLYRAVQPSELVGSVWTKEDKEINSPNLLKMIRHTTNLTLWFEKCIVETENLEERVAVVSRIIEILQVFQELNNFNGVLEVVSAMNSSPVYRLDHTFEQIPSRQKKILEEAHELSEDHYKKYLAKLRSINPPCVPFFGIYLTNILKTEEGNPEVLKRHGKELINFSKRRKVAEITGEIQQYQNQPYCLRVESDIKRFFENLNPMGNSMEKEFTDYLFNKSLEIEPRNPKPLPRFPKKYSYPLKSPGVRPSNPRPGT

For assay [2], the target named is T2, SOS1 and KRAS wild-type interaction (Homo sapiens, UniProt Q07889).
T2 sequence (Q07889 564-1049 limits assumed): T1 sequence (Q07889 564-1049 limits assumed)

Assay [3] addresses T3, SOS1 and KRAS G12V interaction (Homo sapiens, UniProt Q07889).
T3 sequence (Q07889 564-1049 limits assumed): T1 sequence (Q07889 564-1049 limits assumed)

Consider `CNCc1ccccc1-c1c[se]c([C@@H](C)Nc2nc(C)nc3cc(OC)c(OC)cc23)c1` [Example 1, (R)-6,7-dimethoxyl-2-methyl-N-(1-(4-(2-((methylamino)methyl)phenyl)selenophen-2-yl)ethyl)quinazolin-4-amine], for which the IC50 in assay [1] turned out to be 12.5 nM; in assay [2] it was 9.56 nM; in assay [3] it was 16.9 nM.

What is called IC50 is the concentration that gives 50% inhibition. A low value points to inhibition by little substance.
